Laboratory results from patent publication US9040563B2, “Dual inhibitors of farnesyltransferase and geranylgeranyltransferase I” (H. Lee Moffitt Cancer Center and Research Institute, Inc., priority 2010, dated 2015).

Amino acid sequences for entries named in this document (tags omitted).
UniProt P49356, whole entry: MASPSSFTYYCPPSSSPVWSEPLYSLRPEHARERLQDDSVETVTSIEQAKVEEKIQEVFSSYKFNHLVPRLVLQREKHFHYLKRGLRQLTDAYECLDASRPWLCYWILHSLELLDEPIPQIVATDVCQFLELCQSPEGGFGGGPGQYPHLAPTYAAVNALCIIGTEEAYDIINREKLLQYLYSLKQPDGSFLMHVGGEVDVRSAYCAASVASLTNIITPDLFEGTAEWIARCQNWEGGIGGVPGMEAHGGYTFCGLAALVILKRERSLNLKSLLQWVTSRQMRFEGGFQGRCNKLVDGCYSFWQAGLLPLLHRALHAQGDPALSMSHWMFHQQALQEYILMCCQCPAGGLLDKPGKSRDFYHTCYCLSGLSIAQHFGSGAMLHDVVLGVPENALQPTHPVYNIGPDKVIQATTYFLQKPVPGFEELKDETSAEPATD

Target: hFTase (Homo sapiens, UniProt P49354+P49356)
Experiment: In vitro hFTase inhibition: incorporation of [3H]FPP into recombinant H-Ras-CVLS
Assay type: biochemical
Conditions: read-out: hFTase IC50, average of three independent assays (n = 3) unless stated, errors are standard deviations

IC50: 0.06 µM
SMILES: Cn1cnc(S(=O)(=O)N(CCN(Cc2cncn2C)c2ccc(C#N)cc2)CC2CCCCC2)c1
